These results are taken from ChEMBL document CHEMBL1127305, “kappa Opioid receptor selective affinity labels: electrophilic benzeneacetamides as kappa-selective opioid antagonists” (J Med Chem, 1994).

Chains of the proteins cited; added tags and fusions are not shown.
UniProt P42866, whole entry: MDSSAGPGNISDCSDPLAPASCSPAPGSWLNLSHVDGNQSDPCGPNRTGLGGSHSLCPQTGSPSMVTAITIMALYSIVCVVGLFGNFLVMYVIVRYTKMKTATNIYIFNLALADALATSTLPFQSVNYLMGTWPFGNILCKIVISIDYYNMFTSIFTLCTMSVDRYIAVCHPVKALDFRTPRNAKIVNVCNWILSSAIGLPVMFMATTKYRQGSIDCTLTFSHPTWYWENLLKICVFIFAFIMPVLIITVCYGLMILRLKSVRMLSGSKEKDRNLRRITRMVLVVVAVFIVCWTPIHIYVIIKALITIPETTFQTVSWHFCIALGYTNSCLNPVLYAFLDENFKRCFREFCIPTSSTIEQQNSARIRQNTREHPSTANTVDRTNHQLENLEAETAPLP
UniProt P32300, whole entry: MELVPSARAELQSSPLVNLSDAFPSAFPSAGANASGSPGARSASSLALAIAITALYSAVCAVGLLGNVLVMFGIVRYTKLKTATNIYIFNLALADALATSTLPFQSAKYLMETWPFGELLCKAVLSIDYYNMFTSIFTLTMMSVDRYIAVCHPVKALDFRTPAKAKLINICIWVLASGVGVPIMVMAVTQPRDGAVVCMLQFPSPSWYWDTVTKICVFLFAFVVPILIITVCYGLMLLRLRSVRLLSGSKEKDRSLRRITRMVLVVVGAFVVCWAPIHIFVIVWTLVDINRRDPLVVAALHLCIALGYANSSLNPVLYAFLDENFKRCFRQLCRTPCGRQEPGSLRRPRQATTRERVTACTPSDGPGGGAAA
UniProt P33534, whole entry: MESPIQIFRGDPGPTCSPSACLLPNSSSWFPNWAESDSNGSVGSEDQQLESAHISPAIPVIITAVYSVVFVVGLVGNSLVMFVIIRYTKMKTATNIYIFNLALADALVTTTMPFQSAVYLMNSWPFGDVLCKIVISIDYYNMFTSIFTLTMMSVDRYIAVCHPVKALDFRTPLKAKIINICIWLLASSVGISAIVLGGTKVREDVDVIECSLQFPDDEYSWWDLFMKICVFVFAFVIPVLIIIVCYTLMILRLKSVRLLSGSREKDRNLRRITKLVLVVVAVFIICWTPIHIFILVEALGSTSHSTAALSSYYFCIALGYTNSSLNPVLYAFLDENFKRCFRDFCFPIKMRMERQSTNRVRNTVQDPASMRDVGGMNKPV
UniProt P41144, whole entry: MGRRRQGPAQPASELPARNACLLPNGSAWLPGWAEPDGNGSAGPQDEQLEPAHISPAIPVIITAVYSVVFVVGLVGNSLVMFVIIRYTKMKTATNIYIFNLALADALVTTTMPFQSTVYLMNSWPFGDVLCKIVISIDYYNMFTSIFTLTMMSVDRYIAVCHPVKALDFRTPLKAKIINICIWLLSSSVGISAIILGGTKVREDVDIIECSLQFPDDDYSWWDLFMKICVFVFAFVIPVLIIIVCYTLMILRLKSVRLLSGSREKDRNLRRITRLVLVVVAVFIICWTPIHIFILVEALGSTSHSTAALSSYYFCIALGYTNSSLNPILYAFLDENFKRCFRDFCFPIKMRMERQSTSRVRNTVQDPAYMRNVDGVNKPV

Assay [1] addresses Mu-type opioid receptor (Mus musculus) (UniProt P42866). Briefly: Agonist selectivity for mu opioid receptor in the beta-funaltrexamine-treated mice Subcutaneous dose of 20.36 umol/kg of beta-FNA was administered.
The target of assay [2] is Delta-type opioid receptor (Mus musculus) (UniProt P32300). The experiment in a line: Agonist selectivity for delta opioid receptor in the naltrindole-treated mice Subcutaneous dose of 44.44 umol/kg of naltrindole was administered.
Assay [3] concerns the target Kappa-type opioid receptor (Mus musculus) (UniProt P33534). The experiment in a line: Agonist selectivity for kappa opioid receptor in the naltrindole-treated mice. Subcutaneous dose of 12.25 umol/kg of norBNI was administered.
Assay [4] concerns the target Kappa-type opioid receptor (Cavia porcellus) (UniProt P41144). The experiment in a line: Bmax for kappa opioid receptor in guinea pig brain membranes [3H]U-69593 as radioligand. Particulars: Membrane.

SMILES strings stand for the structures.

For `CN(C(=O)Cc1ccc(Cl)c(Cl)c1)[C@H](CN1CCCC1)c1ccccc1` [ICI-199,441], the values for the ED50 ratio in assay [1], in assay [2] and in assay [3] were 1.72, 1.19 and 2.31, respectively.

As to `CN(C(=O)Cc1ccc(Cl)c(Cl)c1)[C@H](CN1CCCC1)c1cccc(N)c1`, the Bmax in assay [4] was found to be 23.4 fM/mg.
